Source: patent US20040018194A1

By UniProt entry, the sequences of proteins in these tests, tags left out. Residues count along the entry.
UniProt P28908, 19-595: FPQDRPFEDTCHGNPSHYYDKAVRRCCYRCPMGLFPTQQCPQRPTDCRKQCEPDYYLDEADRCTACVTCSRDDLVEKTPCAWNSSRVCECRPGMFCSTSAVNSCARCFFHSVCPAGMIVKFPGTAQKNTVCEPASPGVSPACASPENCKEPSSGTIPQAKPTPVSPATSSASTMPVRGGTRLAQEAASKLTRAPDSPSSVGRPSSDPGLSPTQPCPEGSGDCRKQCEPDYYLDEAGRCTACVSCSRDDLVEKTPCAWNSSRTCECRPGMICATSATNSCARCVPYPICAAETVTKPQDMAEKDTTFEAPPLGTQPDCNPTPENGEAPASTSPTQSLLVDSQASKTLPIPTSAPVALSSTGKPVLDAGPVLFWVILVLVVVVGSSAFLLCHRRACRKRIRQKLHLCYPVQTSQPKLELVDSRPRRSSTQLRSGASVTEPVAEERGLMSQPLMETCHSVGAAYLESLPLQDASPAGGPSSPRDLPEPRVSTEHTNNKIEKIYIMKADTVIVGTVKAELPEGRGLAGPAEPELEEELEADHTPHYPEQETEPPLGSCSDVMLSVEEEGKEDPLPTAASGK

Biological target: CD30 (human CD30 receptor) on the cell surface of CD30-positive cell lines (human) (UniProt P28908)
Experiment: cell-based or functional assay

chimeric AC10 conjugated to the cytotoxic agent AEB (cAC10-AEB) (antibody)
IC50 (concentration that killed 50% of the cells), XTT reduction assay, Karpas 299 cells, 2 h exposure, viability at 96 h: < 0.1 microgram/ml
IC50 (concentration that killed 50% of the cells), XTT reduction assay, L540cy cells, 2 h exposure, viability at 96 h: < 0.1 microgram/ml
